Data reported in patent publication US7199280B2, “Homologous recombination in mismatch repair inactivated eukaryotic cells” (dated 2007).

Tests used:
[1] = system: Msh2−/− ES cell line dMsh2-9; test: Tolerance (survival) of ES cells after exposure to MNNG in the presence of O6-benzylguanine; settings: 1 h exposure, 0 to 36.45 μM MNNG, O6-benzylguanine 20 μM, cells counted after 4 days
[2] = system: Msh2+/− ES cell line sMsh2-21; test: as above; settings: 1 h exposure, 0 to 36.45 μM MNNG, O6-benzylguanine 20 μM, cells counted after 4 days

CN(N=O)C(=N)N[N+](=O)[O-]
increase of LD50 for MNNG in the Msh2−/− cell line compared to the heterozygous and wild-type cell lines [1]: 20 fold | tolerance to MNNG of heterozygous cell line [2]: no increased tolerance
